From PubChem BioAssay AID678 (Vanderbilt High Throughput Screening Facility, 2007)
What follows is the remainder of the data, with few or none of the hits. Activity calls are given as the source filed them.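 How the source made its calls: active means fluorescence response below the plate's average for near-maximal glutamate wells, less 3 SD of those wells; inactive means the rest.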

molecular target: Metabotropic glutamate receptor 4 (Homo sapiens) (UniProt Q14833); experiment: human mGluR4 response to M1 antagonist hits, M1 allosteric modulator project, cell-based, antagonist mode, secondary assay 1 (AID 678); settings: CHO-mGluR4 calcium flux, Fluo-4 fluorescence, glutamate EC80; at 10 µM; hits give low values;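 further: raw unnormalized fluorescence span taken in the window right after glutamate addition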

Fluorescence response (max-min), inactive:
Cc1ccccc1C(OCCN(C)C)c1ccccc1 (configuration not stated) 241
CN1CCC(=C2c3ccccc3CC(=O)c3sccc32)CC1 174
COc1ccc(CCN2CCC(Nc3nc4ccccc4n3Cc3ccc(F)cc3)CC2)cc1 248
COc1cc2nc(N3CCN(C(=O)C4CCCO4)CC3)nc(N)c2cc1OC (configuration not stated) 261
CN(C)CCCN1c2ccccc2CCc2ccc(Cl)cc21 241
CCOC(=O)N1CCC(=C2c3ccc(Cl)cc3CCc3cccnc32)CC1 273
CNCCCC12CCC(c3ccccc31)c1ccccc12 255
